Target: D(1A) dopamine receptor (Homo sapiens, UniProt P21728)

Amino acid sequences for entries named in this document (tags omitted).
UniProt P21728, whole entry: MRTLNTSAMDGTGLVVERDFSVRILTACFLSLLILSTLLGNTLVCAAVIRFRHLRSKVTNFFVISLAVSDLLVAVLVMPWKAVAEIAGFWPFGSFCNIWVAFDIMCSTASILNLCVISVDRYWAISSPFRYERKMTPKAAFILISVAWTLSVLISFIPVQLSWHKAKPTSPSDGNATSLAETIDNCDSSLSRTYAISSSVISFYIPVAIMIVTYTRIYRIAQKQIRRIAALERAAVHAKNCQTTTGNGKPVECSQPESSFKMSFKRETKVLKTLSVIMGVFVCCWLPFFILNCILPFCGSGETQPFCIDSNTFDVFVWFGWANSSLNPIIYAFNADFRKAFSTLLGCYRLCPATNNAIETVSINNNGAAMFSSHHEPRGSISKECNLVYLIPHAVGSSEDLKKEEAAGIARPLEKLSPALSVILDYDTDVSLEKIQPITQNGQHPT

| SMILES | Ki [µM] |
| --- | --- |
| c1ccc2c(N3CCN(CCc4ccc5[nH]nnc5c4)CC3)cccc2c1 | 5.75 |
| Cc1cccc(N2CCN(CCc3ccc4nn[nH]c4c3)CC2)c1C | 4.68 |

— ChEMBL document CHEMBL1137161, “Pharmacological evaluation of selected arylpiperazines with atypical antipsychotic potential” (Bioorg Med Chem Lett, 2004)
